The numbers were not newly measured in paper PMC4467585 (Journal of Thoracic Oncology, 2015), which cites them from elsewhere.

Data set [1] relates to ALK-rearranged NSCLC. As to conditions: Japanese patients, ALK inhibitor naive; cited from earlier work.
The subject of data set [2] is ALK-rearranged NSCLC. To be noted: cited from earlier work.

For `CCc1cc2c(cc1N1CCC(N3CCOCC3)CC1)C(C)(C)c1[nH]c3cc(C#N)ccc3c1C2=O` [Alectinib], the ORR with ALK-rearranged NSCLC [1] is 93.5%. As to `C[C@@H](Oc1cc(-c2cnn(C3CCNCC3)c2)cnc1N)c1c(Cl)ccc(F)c1Cl` [Crizotinib], in the data set with ALK-rearranged NSCLC [2] (advanced ALK-rearranged NSCLC, across all studies), the “Overall response rates (ORRs)” value is given as “approximately 60%”. The “Median PFS” value with ALK-rearranged NSCLC [2] (open-label phase III study, previously treated patients) was 8 mo.
